Values joined by “and” are separate entries in the source; they are usually repeats but may differ in a detail not shown here. Equal values may be shown once. Values belong to the binder of their own block, whether it stands above or below them.
Assays:
[1] = target: recombinant human VEGF165 (human, UniProt P15692-4 27-191); assay: cell-based or functional assay
[2] = target: T1, VEGF (VEGF 1-165 aa, R&D Systems 293-VE-010) (UniProt P15692 27-191); assay: Direct bind ELISA, VEGF coated on plate; reference antibody printed beside DVD519
T1 construct: bought reagent; also called vascular endothelial growth factor

Sequences of proteins named here, by UniProt entry; tags and fusion partners are left off. A line that says so, or that is headed by a name, gives the form on record, which may keep a tag or linker.
UniProt P15692, other isoform, or with tags, fused parts or gaps limits assumed: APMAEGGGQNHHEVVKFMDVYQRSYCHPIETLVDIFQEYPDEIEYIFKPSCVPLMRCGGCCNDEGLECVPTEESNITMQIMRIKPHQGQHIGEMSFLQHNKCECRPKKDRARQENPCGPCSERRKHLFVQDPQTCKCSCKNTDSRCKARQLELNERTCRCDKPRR

[3] = target: T1, VEGF (VEGF 1-165 aa, R&D Systems …); assay: Direct bind ELISA, VEGF coated on plate; reference antibody printed beside DVD532
[4] = target: T1, VEGF (VEGF 1-165 aa, R&D Systems …); assay: Direct bind ELISA, VEGF coated on plate; reference antibody printed beside DVD490
[5] = target: T1, VEGF (VEGF 1-165 aa, R&D Systems …); assay: Direct bind ELISA, VEGF coated on plate; reference antibody printed beside DVD501
[6] = target: T1, VEGF (VEGF 1-165 aa, R&D Systems …); assay: Direct bind ELISA, VEGF coated on plate; reference antibody printed beside DVD513
[7] = target: T1, VEGF (VEGF 1-165 aa, R&D Systems …); assay: Direct bind ELISA, VEGF coated on plate; reference antibody printed beside DVD502
[8] = target: T1, VEGF (VEGF 1-165 aa, R&D Systems …); assay: Direct bind ELISA, VEGF coated on plate; reference antibody printed beside DVD508
[9] = target: T1, VEGF (VEGF 1-165 aa, R&D Systems …); assay: Direct bind ELISA, VEGF coated on plate; reference antibody printed beside DVD507
[10] = target: T1, VEGF (VEGF 1-165 aa, R&D Systems …); assay: Direct bind ELISA, VEGF coated on plate; reference antibody printed beside DVD526
[11] = target: T1, VEGF (VEGF 1-165 aa, R&D Systems …); assay: Direct bind ELISA, VEGF coated on plate; reference antibody printed beside DVD531
[12] = target: T1, VEGF (VEGF 1-165 aa, R&D Systems …); assay: Direct bind ELISA, VEGF coated on plate; reference antibody printed beside DVD495
[13] = target: T1, VEGF (VEGF 1-165 aa, R&D Systems …); assay: Direct bind ELISA, VEGF coated on plate; reference antibody printed beside DVD496
[14] = target: T1, VEGF (VEGF 1-165 aa, R&D Systems …); assay: Direct bind ELISA, VEGF coated on plate; reference antibody printed beside DVD514
[15] = target: T1, VEGF (VEGF 1-165 aa, R&D Systems …); assay: Direct bind ELISA, VEGF coated on plate; reference antibody printed beside DVD525
[16] = target: T1, VEGF (VEGF 1-165 aa, R&D Systems …); assay: Direct bind ELISA, VEGF coated on plate; reference antibody printed beside DVD489
[17] = target: T1, VEGF (VEGF 1-165 aa, R&D Systems …); assay: Direct bind ELISA, VEGF coated on plate; reference antibody printed beside DVD520
[18] = target: T2, VEGF (biotinylated VEGF; VEGF165) (UniProt P15692-4 27-191, biotinylated (sites not given)); assay: competition ELISA: antibody pre-incubated with 2 nM biotinylated VEGF, then on coated VEGFR1 ECD-Fc (competitor VEGFR1-Fc)
T2 construct: the method paragraph says only 'biotinylated VEGF'

[19] = target: T3, VEGF 1-165 aa (UniProt P15692 27-191); assay: direct bind ELISA (ref Ab)
T3 construct: Bought antigen coated on the ELISA plate

[20] = target: T4, VEGF (UniProt P15692 27-191, limits assumed); assay: direct bind ELISA, reference antibody
T4 construct: bought antigen coated on the ELISA plate

[21] = target: T5, VEGF (UniProt P15692 27-191, limits assumed); assay: direct bind ELISA, antigen on plate; reference antibody
T5 construct: Bought antigen coated on the ELISA plate; also called vascular endothelial growth factor

[22] = target: biotinylated VEGF (UniProt P15692-4 27-191, limits assumed, biotinylated); assay: VEGF capture ELISA, antibody captured by anti-human Fc, biotinylated VEGF

B1: AB070 (antibody, human IgG1, kappa, V domains shown)
VH: EVQLVESGGGLVQPGGSLRLSCAASGFTISDYWIHWVRQAPGKGLEWVAGITPAGGYTYYADSVKGRFTISADTSKNTAYLQMNSLRAEDTAVYYCARFVFFLPYAMDYWGQGTLVTVSS
VL: DIQMTQSPSSLSASVGDRVTITCRASQDVSTAVAWYQQKPGKAPKLLIYSASFLYSGVPSRFSGSGSGTDFTLTISSLQPEDFATYYCQQSYTTPPTFGQGTKVEIKR
inhibition of HUVEC proliferation (IC50) [1]: 7 nM

B2: AB070 (antibody, human IgG1, kappa, V domains shown)
VH: EVQLVESGGGLVQPGGSLRLSCAASGFTISDYWIHWVRQAPGKGLEWVAGITPAGGYTYYADSVKGRFTISADTSKNTAYLQMNSLRAEDTAVYYCARFVFFLPYAMDYWGQGTLVTVSS
VL: DIQMTQSPSSLSASVGDRVTITCRASQDVSTAVAWYQQKPGKAPKLLIYSASFLYSGVPSRFSGSGSGTDFTLTISSLQPEDFATYYCQQSYTTPPTFGQGTKVEIKR
notes: Parent anti-VEGF antibody
EC50 [2]: 0.97 nM | EC50 [3]: 1.42 nM | EC50 [4]: 2.8 nM | EC50 [5]: 2.44 nM | EC50 [6]: 0.97 nM | EC50 [7]: 2.44 nM | EC50 [8]: 2.44 nM | EC50 [9]: 2.44 nM | EC50 [10]: 1.42 nM | EC50 [11]: 1.42 nM | EC50 [12]: 2.8 nM | EC50 [13]: 2.8 nM | EC50 [14]: 0.97 nM | EC50 [15]: 1.42 nM | EC50 [16]: 2.8 nM | EC50 [17]: 0.97 nM

B4: AB070 (antibody, human IgG1, kappa, V domains shown)
VH: EVQLVESGGGLVQPGGSLRLSCAASGFTISDYWIHWVRQAPGKGLEWVAGITPAGGYTYYADSVKGRFTISADTSKNTAYLQMNSLRAEDTAVYYCARFVFFLPYAMDYWGQGTLVTVSS
VL: DIQMTQSPSSLSASVGDRVTITCRASQDVSTAVAWYQQKPGKAPKLLIYSASFLYSGVPSRFSGSGSGTDFTLTISSLQPEDFATYYCQQSYTTPPTFGQGTKVEIKR
notes: Vectors V1/V2
EC50 [19]: 5.22 nM and 4.64 nM and 5.62 nM

The remaining lines, values ahead:

IC50 [18]: 2.8 nM
B3: AB070 (anti-VEGF parent antibody; VEGF (seq. 2) in Table 2, called VEGF (Seq. 3) in the assay tables) (antibody, human IgG1, kappa, V domains shown)
VH: EVQLVESGGGLVQPGGSLRLSCAASGFTISDYWIHWVRQAPGKGLEWVAGITPAGGYTYYADSVKGRFTISADTSKNTAYLQMNSLRAEDTAVYYCARFVFFLPYAMDYWGQGTLVTVSS
VL: DIQMTQSPSSLSASVGDRVTITCRASQDVSTAVAWYQQKPGKAPKLLIYSASFLYSGVPSRFSGSGSGTDFTLTISSLQPEDFATYYCQQSYTTPPTFGQGTKVEIKR
notes: also called AB070VH/AB070VL

EC50 [20]: 2.35 nM and 1.68 nM
B5: AB070 (antibody, human IgG1, kappa, V domains shown)
VH: EVQLVESGGGLVQPGGSLRLSCAASGFTISDYWIHWVRQAPGKGLEWVAGITPAGGYTYYADSVKGRFTISADTSKNTAYLQMNSLRAEDTAVYYCARFVFFLPYAMDYWGQGTLVTVSS
VL: DIQMTQSPSSLSASVGDRVTITCRASQDVSTAVAWYQQKPGKAPKLLIYSASFLYSGVPSRFSGSGSGTDFTLTISSLQPEDFATYYCQQSYTTPPTFGQGTKVEIKR

EC50 [21]: 1.9 nM
B6: AB070 (antibody, human IgG1, kappa, V domains shown)
VH: EVQLVESGGGLVQPGGSLRLSCAASGFTISDYWIHWVRQAPGKGLEWVAGITPAGGYTYYADSVKGRFTISADTSKNTAYLQMNSLRAEDTAVYYCARFVFFLPYAMDYWGQGTLVTVSS
VL: DIQMTQSPSSLSASVGDRVTITCRASQDVSTAVAWYQQKPGKAPKLLIYSASFLYSGVPSRFSGSGSGTDFTLTISSLQPEDFATYYCQQSYTTPPTFGQGTKVEIKR
notes: also called AB070VH; AB070VL

EC50 [22]: 0.35 nM
B7: AB070 (antibody, human IgG1, kappa, V domains shown)
VH: EVQLVESGGGLVQPGGSLRLSCAASGFTISDYWIHWVRQAPGKGLEWVAGITPAGGYTYYADSVKGRFTISADTSKNTAYLQMNSLRAEDTAVYYCARFVFFLPYAMDYWGQGTLVTVSS
VL: DIQMTQSPSSLSASVGDRVTITCRASQDVSTAVAWYQQKPGKAPKLLIYSASFLYSGVPSRFSGSGSGTDFTLTISSLQPEDFATYYCQQSYTTPPTFGQGTKVEIKR
